This is an account of results in patent US9216999B2, “Substituted pyrrolo[2,3-h][1,6]naphthyridines and compositions thereof as JAK inhibitors” (priority 2011, dated 2015).

The chains behind the UniProt entries cited, without tags or fusion partners. Where a name states a change or a piece, a line headed by the entry shows the natural chain unless it says otherwise.
UniProt P52333: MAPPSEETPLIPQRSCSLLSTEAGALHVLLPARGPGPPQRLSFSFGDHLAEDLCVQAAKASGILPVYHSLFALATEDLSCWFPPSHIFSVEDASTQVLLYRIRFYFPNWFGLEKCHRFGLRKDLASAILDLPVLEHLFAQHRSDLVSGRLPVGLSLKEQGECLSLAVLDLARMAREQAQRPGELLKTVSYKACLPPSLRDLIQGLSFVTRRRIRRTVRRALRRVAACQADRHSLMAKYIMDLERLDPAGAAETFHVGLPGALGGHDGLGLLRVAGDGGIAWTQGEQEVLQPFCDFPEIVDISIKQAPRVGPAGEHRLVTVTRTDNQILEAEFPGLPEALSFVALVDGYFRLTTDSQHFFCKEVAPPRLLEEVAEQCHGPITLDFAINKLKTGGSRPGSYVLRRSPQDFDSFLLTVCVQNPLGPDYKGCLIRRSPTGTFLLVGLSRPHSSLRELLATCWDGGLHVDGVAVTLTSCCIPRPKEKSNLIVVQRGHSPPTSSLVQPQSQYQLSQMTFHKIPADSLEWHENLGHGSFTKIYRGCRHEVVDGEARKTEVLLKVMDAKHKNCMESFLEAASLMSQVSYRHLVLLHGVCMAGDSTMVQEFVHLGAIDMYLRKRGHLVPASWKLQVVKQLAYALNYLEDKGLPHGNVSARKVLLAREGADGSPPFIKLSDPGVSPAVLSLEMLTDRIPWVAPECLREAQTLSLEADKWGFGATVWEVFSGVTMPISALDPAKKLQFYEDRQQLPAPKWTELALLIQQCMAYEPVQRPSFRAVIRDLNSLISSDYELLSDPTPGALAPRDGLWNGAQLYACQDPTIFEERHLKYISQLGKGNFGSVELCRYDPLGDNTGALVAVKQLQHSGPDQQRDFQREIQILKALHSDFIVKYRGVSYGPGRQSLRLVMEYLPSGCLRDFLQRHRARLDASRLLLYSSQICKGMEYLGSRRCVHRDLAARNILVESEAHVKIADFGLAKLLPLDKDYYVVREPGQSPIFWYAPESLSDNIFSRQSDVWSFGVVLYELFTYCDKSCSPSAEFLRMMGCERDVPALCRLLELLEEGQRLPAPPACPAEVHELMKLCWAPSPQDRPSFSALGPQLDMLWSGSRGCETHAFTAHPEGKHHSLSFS

The IC50 is the concentration that gives 50% inhibition.

For one assay, the target named is T1, JAK3 (Homo sapiens (Human), UniProt P52333). As to the kind of experiment: Enzyme assay (Assay Example^a 1), JAK3. The format is biochemical.
Settings: not given
Regarding `N#CCC(=O)N1CCCC(c2ncn3cnc4[nH]ccc4c23)C1` (racemic) [compound 4], the IC50 came to 0.29 µM.

`N#Cc1ccc(CN2CCCC(c3nnn4cnc5[nH]ccc5c34)C2)cc1` (racemic) [compound 22]: the IC50 is above 1 µM.

Staying with this assay, now noted: ATP 100 μM; Table^a 154; read-out: IC50 (μM) JAK3.
As for `O[C@@H](CN[C@H]1CC[C@H](c2nnn3cnc4[nH]ccc4c23)CC1)c1ccccc1` [204b, (R)-2-{[trans-4-(7H-pyrrolo[3,2-e][1,2,3]triazolo[1,5-c]pyrimidin-1-yl)cyclohexyl]amino)-1-phenylethanol], the concentration for half-maximal inhibition (IC50) was above 1 µM.

Consider `N#Cc1cc(F)c(CN2CCC(c3nnn4cnc5[nH]ccc5c34)CC2)c(F)c1` [compound 53], for which the IC50 came out at 0.024 µM.

On to `O[C@H](CN[C@H]1CC[C@H](c2nnn3cnc4[nH]ccc4c23)CC1)c1ccccc1` [203b, (S)-2-{[trans-4-(7H-pyrrolo[3,2-e][1,2,3]triazolo[1,5-c]pyrimidin-1-yl)cyclohexyl]amino}-1-phenylethanol], for which the half-maximal inhibitory concentration (IC50) is 1 µM.

The same assay, now with this note: ATP 100 μM; read-out: IC50 (μM) JAK3.
Regarding `O[C@@H](CNC[C@H]1CC[C@H](c2nnn3cnc4[nH]ccc4c23)CC1)c1ccccc1` [compound 276, (R)-2-({[trans-4-(7H-pyrrolo[3,2-e][1,2,3]triazolo[1,5-c]pyrimidin-1-yl)cyclohexyl]methyl}amino)-1-phenylethanol], the IC50 was 0.063 µM.

As to `O[C@H](CNC[C@H]1CC[C@H](c2nnn3cnc4[nH]ccc4c23)CC1)c1ccccc1` [compound 277, (S)-2-({[trans-4-(7H-pyrrolo[3,2-e][1,2,3]triazolo[1,5-c]pyrimidin-1-yl)cyclohexyl]methyl}amino)-1-phenylethanol], the IC50 turned out to be 0.27 µM.

Staying with this assay, now noted: read-out: IC50 (μM) JAK3.
Consider `FC(F)(F)c1ccc(CN2CCC(c3nnn4cnc5[nH]ccc5c34)CC2)o1` [compound 143], for which the IC50 stood at 0.18 µM.

In the case of `FC(F)(F)Oc1ccc(NC[C@H]2CC[C@H](c3nnn4cnc5[nH]ccc5c34)CC2)cc1` [compound 114], the IC50 was above 1 µM.

As to `Ic1ccc(CN2CCC(c3nnn4cnc5[nH]ccc5c34)CC2)o1` [compound 147], the IC50 was 0.18 µM.

In the case of `Clc1ccc(CN2CCC(c3nnn4cnc5[nH]ccc5c34)CC2)s1` [compound 49], the IC50 was 0.041 µM.

Take `FC[C@H]1CC[C@H](c2nnn3cnc4[nH]ccc4c23)CC1` [compound 73]: the half-maximal inhibitory concentration (IC50) came out at 0.065 µM.

For the molecule `FC(F)(F)c1ccc(NC[C@H]2CC[C@H](c3nnn4cnc5[nH]ccc5c34)CC2)cc1` [compound 99], the IC50 was above 1 µM.

Turning to `c1cc2c(ncn3nnc(C4CCCCCC4)c23)[nH]1` [compound 66], the IC50 came to 0.086 µM.

On to `c1cc2c(ncn3nnc(C4CCN(CC5CCCCC5)CC4)c23)[nH]1` [compound 50], for which the IC50 was above 1 µM.

As to `Fc1ccc(CNC[C@H]2CC[C@H](c3nnn4cnc5[nH]ccc5c34)CC2)cc1` [compound 101], the IC50 was 0.22 µM.

In the case of `O=C[C@H]1CC[C@H](c2nnn3cnc4[nH]ccc4c23)CC1` [compound 78], the IC50 is 0.17 µM.

Consider `FC(F)(F)c1cccc(CCNC2CCC(c3nnn4cnc5[nH]ccc5c34)CC2)c1` (stereo not shown) [compound 125], for which the IC50 was above 1 µM.

Consider `O=C(c1ccc(C(F)(F)F)cc1)N1CCC(c2nnn3cnc4[nH]ccc4c23)CC1` [compound 58], for which the IC50 was above 1 µM.

`CS(=O)(=O)c1ccc(CNC[C@H]2CC[C@H](c3nnn4cnc5[nH]ccc5c34)CC2)cc1` [compound 113]: the IC50 was 0.71 µM.

Turning to `c1cc2c(ncn3nnc([C@H]4CC[C@H](CNc5ccc(N6CCOCC6)cc5)CC4)c23)[nH]1` [compound 118], the IC50 was above 1 µM.

`Fc1ccc(CN2CCC(c3nnn4cnc5[nH]ccc5c34)CC2)cn1` [compound 145]: the concentration for half-maximal inhibition (IC50) was 0.026 µM.

For `OC[C@H]1CC[C@H](c2nnn3cnc4[nH]ccc4c23)CC1` [compound 141], the half-inhibitory concentration (IC50) was 0.24 µM.

Regarding `O[C@H]1CCN(C[C@H]2CC[C@H](c3nnn4cnc5[nH]ccc5c34)CC2)C1` [compound 119], the IC50 is 0.59 µM.

Regarding `N#CCCNC[C@H]1CC[C@H](c2nnn3cnc4[nH]ccc4c23)CC1` [compound 90], the IC50 was found to be 0.2 µM.

`FC(F)(F)Oc1ccc(NC[C@H]2CC[C@H](c3nnn4cnc5[nH]ccc5c34)CC2)c(Cl)c1` [compound 115]: the half-maximal inhibitory concentration (IC50) is above 1 µM.

On to `SC[C@H]1CC[C@H](c2nnn3cnc4[nH]ccc4c23)CC1` [compound 76], for which the IC50 was determined as 0.03 µM.

Consider `FC(F)(F)c1cc(CN2CCC(c3nnn4cnc5[nH]ccc5c34)CC2)cc(C(F)(F)F)c1` [compound 47], for which the IC50 was above 1 µM.

On to `Fc1ccc(NC2CCC(c3nnn4cnc5[nH]ccc5c34)CC2)cc1` (stereo not shown) [compound 131], for which the IC50 was found to be 0.56 µM.

As to `O=C(CC(F)(F)F)N1CCC(c2nnn3cnc4[nH]ccc4c23)CC1` [compound 29], the IC50 was above 1 µM.

On to `c1cc2c(ncn3nnc(C4CCN(C5CCCC5)CC4)c23)[nH]1` [compound 51], for which the half-maximal inhibitory concentration (IC50) is above 1 µM.

Take `F[C@H]1CCN(C[C@H]2CC[C@H](c3nnn4cnc5[nH]ccc5c34)CC2)C1` [compound 94]: the IC50 is 0.83 µM.

Take `O=C(Nc1cccc(C(F)(F)F)c1)N1CCC(c2nnn3cnc4[nH]ccc4c23)CC1` [compound 57]: the 50% inhibitory concentration (IC50) was above 1 µM.

As to `N#CC1CCN(C2CCC(c3nnn4cnc5[nH]ccc5c34)CC2)CC1` (stereo not shown) [compound 127], the IC50 is above 1 µM.

In the case of `Cc1cc(C#N)ccc1NC1CCC(c2nnn3cnc4[nH]ccc4c23)CC1` (stereo not shown) [compound 132], the IC50 was above 1 µM.

With `FC1(F)CCN(C[C@H]2CC[C@H](c3nnn4cnc5[nH]ccc5c34)CC2)CC1` [compound 97], the IC50 turned out to be 0.97 µM.

Regarding `N#Cc1ccc(CN2CCC(c3nnn4cnc5[nH]ccc5c34)CC2)s1` [compound 144], the 50% inhibitory concentration (IC50) was found to be 0.054 µM.

For `c1csc(CN2CCC(c3nnn4cnc5[nH]ccc5c34)CC2)c1` [compound 148], the concentration for half-maximal inhibition (IC50) worked out at 0.2 µM.

As for `c1ccc(CCCN2CCC(c3nnn4cnc5[nH]ccc5c34)CC2)cc1` [compound 45], the IC50 was above 1 µM.

As to `F[C@@H]1CCN(C[C@H]2CC[C@H](c3nnn4cnc5[nH]ccc5c34)CC2)C1` [compound 95], the IC50 is above 1 µM.

As to `Brc1ccc(CN2CCC(c3nnn4cnc5[nH]ccc5c34)CC2)o1` [compound 149], the IC50 is 0.06 µM.

With `FC(F)(F)Sc1ccc(CN2CCC(c3nnn4cnc5[nH]ccc5c34)CC2)cc1` [compound 38], the IC50 was 0.22 µM.

`FC(F)(F)c1ccc(CNC[C@H]2CC[C@H](c3nnn4cnc5[nH]ccc5c34)CC2)cc1` [compound 98]: the IC50 amounted to 0.3 µM.

`FC(F)(F)[C@H]1CC[C@H](c2nnn3cnc4[nH]ccc4c23)CC1` [compound 69]: the half-maximal inhibitory concentration (IC50) is above 1 µM.

Consider `O=C(OCc1ccccc1)N1CCC(c2nnn3cnc4[nH]ccc4c23)CC1` [compound 26], for which the concentration for half-maximal inhibition (IC50) is above 1 µM.

Consider `COc1ccc(CN2CCC(c3nnn4cnc5[nH]ccc5c34)CC2)cc1F` [compound 46], for which the IC50 was above 1 µM.

Turning to `N#Cc1ccc(CN2CCC(c3nnn4cnc5[nH]ccc5c34)CC2)cc1` [compound 34], the IC50 is 0.031 µM.

`CN(c1ccc(F)cc1)C1CCC(c2nnn3cnc4[nH]ccc4c23)CC1` (stereo not shown) [compound 130]: the IC50 was above 1 µM.

For the molecule `c1cc2c(ncn3nnc([C@H]4CC[C@H](CNC[C@@H]5CCCO5)CC4)c23)[nH]1` [compound 120], the concentration for half-maximal inhibition (IC50) was above 1 µM.

For `Fc1ccc(NC[C@H]2CC[C@H](c3nnn4cnc5[nH]ccc5c34)CC2)cc1` [compound 100], the IC50 came out at 0.24 µM.

Consider `c1cc(CCNC2CCC(c3nnn4cnc5[nH]ccc5c34)CC2)ccn1` (stereo not shown) [compound 122], for which the half-inhibitory concentration (IC50) was above 1 µM.

As for `O=S1(=O)CCN(C[C@H]2CC[C@H](c3nnn4cnc5[nH]ccc5c34)CC2)CC1` [compound 88], the IC50 was 0.21 µM.

`Cc1noc(C)c1CN1CCC(c2nnn3cnc4[nH]ccc4c23)CC1` [compound 36]: the IC50 is above 1 µM.

A further assay has as its target T1, JAK3. As to the kind of experiment: JAK3 enzyme assay (Assay Example^b 1). Conditions: IC50 (μM) JAK3, ATP 100 μM.
Molecule `O=c1[nH]c(=O)n(C2CCN(CC3CCCO3)CC2)c2c1cnc1[nH]ccc12` (racemic) [compound 99] returned a 50% inhibitory concentration (IC50) above 1 µM.

Turning to `O=c1[nH]c(=O)n(C2CCC(CN3CCC(F)(F)CC3)CC2)c2c1cnc1[nH]ccc12` (stereo not shown) [compound 115], the IC50 is above 1 µM.

`CC1(C)CC1NC[C@H]1CC[C@H](n2c(=O)[nH]c(=O)c3cnc4[nH]ccc4c32)CC1` (mixture of isomers) [compound 125] registered an IC50 above 1 µM.

With `CN(CCO)CC1CCC(n2c(=O)[nH]c(=O)c3cnc4[nH]ccc4c32)CC1` (stereo not shown) [compound 120], the 50% inhibitory concentration (IC50) is above 1 µM.

`O=c1[nH]c(=O)n([C@H]2CC[C@H](CNCC(O)(c3cccnc3)C(F)(F)F)CC2)c2c1cnc1[nH]ccc12` (mixture of isomers) [compound 132] yielded an IC50 above 1 µM.

As to `N#C[C@@H]1CCN(CC2CCC(n3c(=O)[nH]c(=O)c4cnc5[nH]ccc5c43)CC2)C1` (stereo partly shown) [compound 118], the IC50 is above 1 µM.

In turn, `O=c1[nH]c(=O)n([C@H]2CC[C@H](CNCC3CCCO3)CC2)c2c1cnc1[nH]ccc12` (mixture of isomers) [compound 130] displayed a concentration for half-maximal inhibition (IC50) above 1 µM.

Take `O=c1[nH]c(=O)n(C2CCN(CCCCCC(F)(F)F)CC2)c2c1cnc1[nH]ccc12` [compound 97]: the IC50 is above 1 µM.

Staying with this assay, now noted: IC50 (μM) JAK3, Table^b 78; ATP 100 μM.
Take `C[C@@H]1CCN(Cc2ccccc2)C[C@@H]1n1ccc(=O)c2cnc3[nH]ccc3c21` (racemic) [compound 4]: the half-inhibitory concentration (IC50) was found to be 0.065 µM.

The assay is the same for the next values; noted with them: IC50 (μM) JAK3, Table^b 80; ATP 100 μM.
`O=c1ccn(C2CCC(CO)CC2)c2c1cnc1[nH]ccc12` (stereo not shown) [compound 69] displayed an IC50 above 1 µM.

Regarding `C[C@@H]1CCN(C(=O)C2CCCC2)C[C@@H]1n1ccc(=O)c2cnc3[nH]ccc3c21` (racemic) [compound 38], the half-maximal inhibitory concentration (IC50) stood at 0.031 µM.

As to `O=c1[nH]c(=O)n(C2CCN(Cc3ccc(Cl)s3)CC2)c2c1cnc1[nH]ccc12` [compound 51], the concentration for half-maximal inhibition (IC50) was above 1 µM.

`N#Cc1ccc(CN2CCC(n3ccc(=O)c4cnc5[nH]ccc5c43)CC2)c(F)c1` [compound 58] gave a half-maximal inhibitory concentration (IC50) above 1 µM.

Molecule `N#Cc1ccc(CN2CCC(n3ccc(=O)c4cnc5[nH]ccc5c43)CC2)cc1` [compound 57] returned an IC50 above 1 µM.
